Here are results for three compounds from US20220370429A1, “AROMATIC HETEROCYCLIC COMPOUND HAVING TRICYCLIC STRUCTURE, AND PREPARATION METHOD THEREFOR AND APPLICATION THEREOF” (SHANGHAI LONGWOOD BIOPHARMACEUTICALS CO., LTD., priority 2019, published 2022).

Protein sequences, listed by entry. Tags and fused reporters are not part of them. Residues count along the entry.
UniProt Q9NZQ7, 19-238 limits assumed: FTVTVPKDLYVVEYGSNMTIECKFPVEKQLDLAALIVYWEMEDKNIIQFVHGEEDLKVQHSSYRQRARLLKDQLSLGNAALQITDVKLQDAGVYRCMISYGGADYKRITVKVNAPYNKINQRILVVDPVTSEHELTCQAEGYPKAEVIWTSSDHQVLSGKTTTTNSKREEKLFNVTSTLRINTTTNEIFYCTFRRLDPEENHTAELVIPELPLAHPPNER

The experiment concerns the target PD-1/PD-L1 (Homo sapiens, UniProt Q9NZQ7). The experiment is described as follows: PD-1/PD-L1 Homogeneous Time-Resolved Fluorescence (HTRF) Binding Assay. As to conditions: read-out: PD-1/PD-L1 HTRF IC50, 25° C., PBS pH 7.4, ~3 nM PD1, 10 nM PD-L1. As for the experimental part: Example A: PD-1/PD-L1 Homogeneous Time-Resolved Fluorescence (HTRF) Binding Assay
Assays were performed in standard black 384-well polystyrene plates and a final volume was 20 μL. The inhibitor was first serially diluted with DMSO and added to the wells of the plate, followed by the addition of other reaction components. The final concentration of DMSO in the assay was 1%. Assays were performed at 25° C. in PBS buffer (pH 7.4) containing 0.05% Tween-20 and 0.1% BSA. Recombinant human PD-L1 protein (19-238) with a His-tagged at the C-terminus was purchased from AcroBiosystems (PD1-H5229). Recombinant human PD-1 protein (25-167) with an Fc tag at the C-terminus was also purchased from AcroBiosystems (PD1-H5257). The PD-L1 and PD-1 proteins were diluted in assay buffer and then […] of the solution was extracted and added to the wells of the plate. Plates were centrifuged and proteins and inhibitors were preincubated for 40 minutes. After incubation, 0.1 μl of HTRF detection buffer containing europium […] labeled anti-human IgG (PerkinElmer-AD0212), Fc-specific and anti-His SureLight®-Allophycocyanin (APC, PerkinElmer-AD0059H) conjugated antibodies was added. After centrifugation, the plates were incubated at 25° C. for 60 minutes. Data was read in a PHERAstar FS plate reader (665 nm/620 nm ratio). Final concentrations in the assay were ˜3 nM PD1, 10 nM PD-L1, 1 nM europium anti-human IgG, and 20 nM anti-His-allophycocyanin. Activity data were fitted using GraphPad Prism 5_0 software to derive IC50 values for inhibitors.
For orientation: Time-resolved FRET reads energy transfer from a long-lived donor to a nearby acceptor.
Consider `COc1nc(O[C@H]2CCc3c(-c4cccc(-c5cc6cc7c(c(C#N)c6o5)CC[C@H]7N5CC[C@@H](C(=O)NS(=O)(=O)C6CC6)C5)c4Cl)cccc32)c(Cl)cc1CN1CC2(CCC(=O)N2)C1`, for which the IC50 was less than 10 nM. On to `COc1nc(O[C@H]2CCc3c(-c4cccc(-c5nc6cc7c(c(C#N)c6o5)CC[C@H]7N5CC[C@@H](C(=O)NS(C)(=O)=O)C5)c4Cl)cccc32)c(Cl)cc1CN1CC[C@@H](O)C1`, for which the IC50 is less than 10 nM. For the compound `COc1nc(O[C@H]2CCc3c(-c4cccc(-c5nc6cc7c(c(C#N)c6o5)CC[C@H]7N5CC[C@@H](C(=O)O)C5)c4C)cccc32)c(C(F)F)cc1CN1CC[C@@H](O)C1`, the IC50 is less than 10 nM.
